Measured values as given in patent publication US7208311B2, “Catalytic domain of ADAM33 and methods of use thereof” (Schering Corporation, priority 2002, dated 2007).

Protein sequences, listed by entry. Tags and fused reporters are not part of them. Residues count along the entry.
UniProt Q9BZ11, 204-409 limits assumed: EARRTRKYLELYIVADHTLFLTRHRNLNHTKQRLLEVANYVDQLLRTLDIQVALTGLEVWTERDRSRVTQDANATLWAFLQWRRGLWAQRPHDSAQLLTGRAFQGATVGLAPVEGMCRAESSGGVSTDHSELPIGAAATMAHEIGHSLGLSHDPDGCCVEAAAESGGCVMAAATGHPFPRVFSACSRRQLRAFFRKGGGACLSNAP

Biological target: ADAM33 (Homo sapiens, UniProt Q9BZ11)
Test: HPLC inhibition assay, ADAM33cat with KL-1 peptide substrate
Details: ADAM33cat 80 nM, KL-1 peptide 100 μM, 2 h RT
Procedure: The inhibition dissociation constants (Ki) for inhibitors were determined as follows: an HPLC assay was performed in the presence or absence of inhibitors for 2 h at RT using ADAM33cat (80 nM) and KL-1 peptide substrate (100 μM). For testing tissue inhibitor of metalloproteinases (TIMPs), ADAM33 and human TIMPs were pre-incubated for 1 h at RT. […] Initial velocities were calculated by dividing cleaved product over reaction time. The initial velocities were plotted as a function of inhibitor concentration. For tight binding inhibitors (IK682, TIMP-3), the apparent inhibitor dissociation constants (Ki app values) were calculated by fitting the curve to the following modified Morrison's equation: vi=vo{[(Eo−Io−Ki^app)^2+4 Ki^appEo]^1/2+(Eo−IoKI^app)}/2Eo where Ki^app=Ki(1+S/Km), vo is the uninhibited initial velocity, vi is the initial velocity in the presence of inhibitor at any given inhibitor concentration Io, and Eo is initial enzyme concentration. When the substrate concentration S<<Km, Ki^app is approximately equal to Ki.

Ki: 0.023 µM
SMILES: Cc1cc(COc2ccc([C@]3(C)CCN([C@H](C)C(=O)NO)C3=O)cc2)c2ccccc2n1
